Bioassay records as filed in PubChem BioAssay.
This is a sample that favours compounds with a hit; in the whole collection about 2.2% have one here.
Nrf2 inh – inhibitors of Nrf2 signaling | A549 ARE-Fluc reporter, luciferase luminescence, 18-24 h | Potency, µM (top dose mostly 46 µM), usual class: inhibitors | 2.1% of 360,000 active | AID 504444; further: nearly all actives have a fitted effect of over 60% in size
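Two sequential reads on A549 ARE_Fluc cells exposed to compound for 18-24 h: a CellTiter-Fluor fluorescence read for viability, then a luciferase luminescence read for Nrf2/ARE activity.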
GALK inh – inhibitors of human galactokinase; Potency, µM (series often up to 57.5 µM), hits mostly inhibitors; Purified GALK, Kinase-Glo residual ATP luminescence; P51570; 0.007% of 270,000 active
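Kinase-Glo Plus luminescence measured ATP left after a 1 h room-temperature reaction. The reaction used 5 nM GALK, 100 uM galactose and 35 uM ATP at pH 8.0 (20 mM HEPES, 5 mM MgCl2, 60 mM NaCl, 1 mM DTT, 0.01% BSA).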
A549 tox – counter-screen for Nrf2 inhibitors: cytotoxicity in A549 cells. A549 ARE-Fluc cells, CellTiter-Fluor viability, 18-24 h. Potency, µM (titrated, usually from 46 µM), hits mostly inhibitors. 0.16% of 390,000 active. AID 504648
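A549 ARE_Fluc cells in 5% FBS OPTI-MEM were exposed to compounds in concentration-response for 18-24 h at 37 deg C. Viability was read by CellTiter-Fluor fluorescence (Ex 405/Em 525) after 30 min, before the luciferase read.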
PI4K2A block – inhibitors of human PI4K2A | purified PI4K2A, ADP-Glo luminescence, 1 h; stronger effect = lower value | activity change, negative = inhibition, % at 76.9 µM | 0.13% of 420,000 active | AID 1346378; in the data active means activity change below about -50%; inconclusive means mostly about -30% to -49%
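In this quantitative HTS, ADP production by PI4K2A was quantified luminescently after 1 h at ambient temperature; 100 microM adenosine served as plate-quality control.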
Nrf2 ARE act – activates Nrf2 signaling. Potency, µM (doses to about 46.1 µM), actives largely listed as activators. 0.31% of 410,000 active. AREc32 ARE-luciferase reporter (MCF7-derived line), luminescence, 24 h; further: nearly all actives have a fitted effect of over 65% in size
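ARE activation measured as luciferase luminescence (Steady-Glo, 30 min RT) in AREc32_Fluc cells after 24 hr compound exposure at 37 deg C, 5% CO2; cells seeded overnight at 1000/well in OPTI-MEM, 5% FBS.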
miR-21 reporter – miR-21 reporter, rising signal | Potency, µM (highest dose often 38.3 µM) | 340,000 tested, under 10 active | HeLa miR-21 FLuc reporter, luciferase, 48 h; active = well fitted rising curve with a large enough effect; inconclusive = small, poorly fitted or top-dose-only effect; inactive = no such curve, though single readings can be large or run the other way;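 note: miR-21 action dims this reporter so a rising signal means less miR-21 action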
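HeLa cells stably expressing CMV-driven firefly luciferase with a downstream miR-21 binding sequence, endogenously expressing miR-21, were treated with titrations (up to about 40uM final) for 48 hours at 37 degree Celsius. Luciferase luminescence was read after lysis.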
Of the large screens only hits and unclear results are named; the others gave an inactive call. Unless noted, the call rests on the fitted dose curve; in most records, active means well fitted curve in the direction sought with a large enough effect; inconclusive means small, poorly fitted or top-dose-only effect, or another doubt; inactive means no such curve, though single readings can be large; an effect the other way counts as inactive or inconclusive.

O=C(CN1CCN(c2nc(-c3ccccc3)cs2)CC1)Nc1ccc(Cl)cc1	none (no result: Nrf2 inh, GALK inh, A549 tox, Nrf2 ARE act, miR-21 reporter)
Cn1cccc1C(=O)N1CCN(S(=O)(=O)c2ccc(F)cc2)CC1	none (no result: Nrf2 inh, GALK inh, A549 tox, Nrf2 ARE act, miR-21 reporter)
COc1ccc(N(C)C(=O)c2cc3c(s2)-c2c(C)cccc2OC3)c(OC)c1	Nrf2 inh 21µM (no result: GALK inh)
COC(=O)C1=C(N)Oc2cc(C)n(C)c(=O)c2C1c1ccc(Cl)c(Cl)c1 (stereo unspecified)	none
COC(=O)C1=C(N)Oc2cc(C)n(CC3CCCO3)c(=O)c2C1c1ccc(Cl)c(Cl)c1 (stereo unspecified)	Nrf2 inh 21µM
Cc1ccnc(NC(=O)c2ccc(OCC3CCCO3)cc2)c1 (stereo unspecified)	Nrf2 inh inconclusive, PI4K2A block -63 (no result: GALK inh, miR-21 reporter)
COc1ccc(NC(=O)Nc2cc(C)ccn2)cc1	Nrf2 inh inconclusive (no result: GALK inh, miR-21 reporter)
COc1ccc(C(=O)NC(=O)Nc2cc(C)ccn2)cc1	Nrf2 inh 7.3µM
CC(=O)N1CCN(c2ccc(NS(=O)(=O)c3ccc4c(c3)CC(=O)N4)cc2)CC1	none (no result: GALK inh, PI4K2A block, Nrf2 ARE act, miR-21 reporter)
O=C(CSc1nnc(-c2cccnc2)n1-c1ccccc1)Nc1cccc2ccccc12	none (no result: Nrf2 inh, GALK inh, A549 tox, Nrf2 ARE act, miR-21 reporter)
COc1cccc(NC(=O)/C(C#N)=C\c2cn(Cc3ccc(Cl)cc3)c3ccccc23)c1	Nrf2 inh inconclusive (no result: GALK inh)
COc1cccc(NC(=O)/C(C#N)=C/c2c(C)n(Cc3ccccc3)c3ccccc23)c1	Nrf2 inh 12µM (no result: GALK inh)
CCCc1nc2c(=O)n(C)c(=O)nc-2n(C)n1	Nrf2 inh 23µM, GALK inh 1.8µM, A549 tox 6.5µM, PI4K2A block -61, miR-21 reporter inconclusive
CCc1ccc(-c2nc3c(=O)n(C)c(=O)nc-3n(CC)n2)cc1	Nrf2 inh 15µM, A549 tox inconclusive (no result: GALK inh, PI4K2A block, Nrf2 ARE act, miR-21 reporter)
COc1ccc(-c2nc(-c3ccccn3)ncc2S(C)(=O)=O)cc1	none
Cc1ccc(-n2c3nc(=O)n(C)c(=O)c-3cc3ccccc32)cc1	none
CCc1ccc(-c2csc3ncn(CC)c(=O)c23)cc1	none
Cn1nc(-c2ccccn2)nc2c(=O)n(C)c(=O)nc1-2	Nrf2 inh 3.7µM, GALK inh 1µM, A549 tox 3.3µM, PI4K2A block -63, miR-21 reporter inconclusive
Cc1ccccc1-c1nc2c(=O)n(C)c(=O)nc-2n(C)n1	Nrf2 inh 2.3µM, A549 tox 4.1µM (no result: GALK inh, PI4K2A block, Nrf2 ARE act, miR-21 reporter)
CCn1c(N)nc2c1c(=O)n(C)c(=O)n2C	none
CCC(NC(=O)c1ccc2c(ccn2Cc2cccc(-c3ccc(C(=O)O)cc3)c2)c1)c1ccccc1 (stereo unspecified)	none (no result: Nrf2 inh, GALK inh, A549 tox, Nrf2 ARE act, miR-21 reporter)
COCCNC(=O)/C(C#N)=C/c1ccc(O)cc1	PI4K2A block -69
COC(=O)c1ccc2nc(NC(=O)C3CCCCC3)sc2c1	Nrf2 inh inconclusive
COC(=O)c1ccc2nc(NC(=O)C(C)(C)C)sc2c1	Nrf2 inh 4.1µM, miR-21 reporter inconclusive
O=C(c1cc(Cl)cc(Cl)c1)N1CC[C@H]2[C@H](CCCN2Cc2cc(F)cc(F)c2)C1	none (no result: Nrf2 inh, GALK inh, A549 tox, Nrf2 ARE act, miR-21 reporter)
CC(=O)NN1C(=O)/C(=C/c2ccc(Br)o2)SC1=S	Nrf2 inh inconclusive, A549 tox inconclusive, Nrf2 ARE act inconclusive
CC(=O)NN1C(=O)/C(=C\c2ccc(Br)o2)SC1=S	Nrf2 ARE act 16µM (no result: GALK inh)
CN(CC1CCCO1)S(=O)(=O)c1ccc(C(=O)Nc2nc(-c3ccccn3)cs2)cc1 (stereo unspecified)	Nrf2 inh 5.2µM, A549 tox inconclusive
CN(C)S(=O)(=O)c1ccc(C(=O)Nc2nc(-c3cc4ccccc4o3)cs2)cc1	Nrf2 inh 6.5µM
CC1CN(S(=O)(=O)c2ccc(C(=O)Nc3nncs3)cc2)CC(C)O1 (stereo unspecified)	none (no result: GALK inh, miR-21 reporter)
CC1CN(S(=O)(=O)c2ccc(C(=O)Nc3nc(-c4cc5ccccc5o4)cs3)cc2)CC(C)O1 (stereo unspecified)	Nrf2 inh 3.7µM, A549 tox 7.3µM
O=C(COC(=O)/C=C/c1ccco1)Nc1ccc(F)cc1Cl	Nrf2 ARE act 3.2µM
O=C(COC(=O)/C=C/c1ccco1)Nc1ccccc1	Nrf2 ARE act inconclusive
CC(C)n1nnnc1C1(C)CCCCC(=O)N1Cc1cccc(C(F)(F)F)c1 (stereo unspecified)	none (no result: Nrf2 inh, GALK inh, A549 tox, Nrf2 ARE act, miR-21 reporter)
CC(=O)Nc1ccc(Nc2nc(C)c([N+](=O)[O-])c(Nc3ccccc3)n2)cc1	Nrf2 inh 16µM, A549 tox inconclusive, miR-21 reporter inconclusive
Cc1ccc(C)c(Cn2c(-c3cccs3)nc3ccccc32)c1	Nrf2 inh 23µM, A549 tox inconclusive (no result: GALK inh)
C=CCN1C(=O)/C(=C\c2ccco2)C(C(=O)OC)=C1C	Nrf2 ARE act inconclusive
CCN1C(=O)/C(=C\c2ccco2)C(C(=O)OC)=C1C	Nrf2 ARE act 10µM
Cc1n(Cc2ccccc2)c2ccccc2[n+]1Cc1ccccc1	Nrf2 inh 16µM, miR-21 reporter inconclusive
O=C1CCC[C@H]2C[C@H](NCc3cccs3)CC[C@]23CCCN13	none (no result: Nrf2 inh, GALK inh, A549 tox, Nrf2 ARE act, miR-21 reporter)
CN1C=C/C(=C\c2cc[n+](C)c3ccccc23)c2ccccc21	Nrf2 inh 5.8µM, A549 tox inconclusive, miR-21 reporter inconclusive
Cc1cccc(Cn2c(=O)n3nc(-c4ccccc4)nc3c3ccccc32)c1	Nrf2 inh 15µM (no result: GALK inh)
CCCc1nc2ccccc2c(=O)n1NC(=O)c1c(O)c2ccccc2n(C)c1=O	Nrf2 inh 18µM
CCCCCCc1nc2ccccc2c(=O)n1NC(=O)c1c(O)c2c(n(CC(C)C)c1=O)CCCC2	Nrf2 inh 21µM, A549 tox inconclusive
